According to patent publication US10167279B2 (NOVARTIS AG, priority 2014, dated 2019):

Target: C-Raf FL (Homo sapiens (Human), UniProt P04049, Y340E/Y341E)
Assay: In vitro Raf activity determination (Alpha Screen, phospho-MEK), C-Raf FL (full length, Y340E/Y341E)
Format: biochemical
Conditions: ATP 1 μM; 60 min pre-incubation; 1 hour reaction; column head does not say FL or TR
From the text: The activity of a compound according to the present invention can be assessed by well-known in vitro & in vivo methods. Raf inhibition data provided herein was obtained using the following procedures.
Sf9 cells co-expressing both proteins were lysed and subjected to immobilized nickel chromatography and eluted with Imidazole. A second column (StrepII binding column) was used and eluted with desthiobiotin. Protein Tags were removed using Prescission enzyme and the protein was further purified using a flowthrough step to remove tags.
C-Raf TR refers to a truncated C-Raf protein, a Δ1-324 deletion mutant. C-Raf FL refers to the full-length C-Raf protein.
Full length MEK1 with an inactivating K97R ATP binding site mutation is utilized as a RAF substrate. The MEK1 cDNA was subcloned with an N-terminal (his)6 tag into a vector for E. Coli expression. […]
Assay protocol: Raf and biotinylated Mek (kinase dead) were combined at 2× final concentrations in assay buffer (50 mM Tris, pH 7.5, 15 mM MgCl2, 0.01% BSA and 1 mM DTT) and dispensed […] per well in assay plates (Greiner white 384 well assay plates #781207) containing […] of 40× of a Raf kinase inhibitor test compound diluted in 100% DMSO. […] A lid was placed on top of the plate and incubated for 1 hour at room temperature, after which the luminescence was read on a PerkinElmer Envision instrument. […]

IC50	Substance
0.8 nM	2-(2-cyanopropan-2-yl)- N-(3-(2-(2- hydroxyethoxy)-6-(4- (hydroxymethyl) tetrahydro-2H-pyran-4- yl)pyridin-4-yl)-4- methylphenyl) isonicotinamide [Example 218]
0.2 nM	2-(1,1-difluoroethyl)-N- (3-(2-(hydroxymethyl)- 2-methyl-3-oxo-8- (tetrahydro-2H-pyran-4- yl)-3,4-dihydro-2H-benzo [b][1,4]oxazin-6-yl)-4- methylphenyl) isonicotinamide [Example 203]
